# Source: article PMC9785492 (Viruses, 2022)
# By UniProt entry, the sequences of proteins in these tests, tags left out. Residues count along the entry.
# UniProt P03470, whole entry, looked up: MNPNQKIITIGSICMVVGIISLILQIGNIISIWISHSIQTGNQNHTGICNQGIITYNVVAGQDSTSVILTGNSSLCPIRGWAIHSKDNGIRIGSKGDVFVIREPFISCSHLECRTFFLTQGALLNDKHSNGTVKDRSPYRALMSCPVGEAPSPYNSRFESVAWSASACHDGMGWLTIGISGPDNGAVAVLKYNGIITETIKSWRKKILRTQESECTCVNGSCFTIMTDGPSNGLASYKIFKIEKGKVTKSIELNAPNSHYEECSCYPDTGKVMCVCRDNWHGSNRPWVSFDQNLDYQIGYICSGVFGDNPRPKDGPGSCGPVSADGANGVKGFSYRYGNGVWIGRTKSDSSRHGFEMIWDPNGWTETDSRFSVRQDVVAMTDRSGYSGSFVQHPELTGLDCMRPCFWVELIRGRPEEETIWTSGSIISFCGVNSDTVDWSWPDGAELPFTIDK
# UniProt P03454, 18-342 limits assumed: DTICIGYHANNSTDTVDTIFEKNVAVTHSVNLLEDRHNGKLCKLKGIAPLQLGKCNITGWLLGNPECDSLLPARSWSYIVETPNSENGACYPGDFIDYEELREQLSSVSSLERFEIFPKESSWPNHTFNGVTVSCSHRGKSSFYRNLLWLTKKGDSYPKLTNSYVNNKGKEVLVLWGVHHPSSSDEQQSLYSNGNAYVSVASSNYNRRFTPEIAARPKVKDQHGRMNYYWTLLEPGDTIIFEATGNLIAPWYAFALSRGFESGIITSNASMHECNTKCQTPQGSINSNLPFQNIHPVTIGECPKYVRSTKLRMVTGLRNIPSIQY
# Tests used:
# [1] = target: NA enzyme activity (Influenza A virus, UniProt P03470)
# [2] = target: viral surface glycoprotein HA (HA1 subunit) (Influenza A virus, UniProt P03454)
# [3] = tested on: A/WSN/33; assay type: cell-based
Structure (SMILES),NA enzyme activity [1],hemagglutination of red blood cells [2],IAV replication (intracellular IAV RNA) [3]
COC(=O)C1=C(C)NC(C)=C(C(=O)OCC(C)C)C1c1ccccc1[N+](=O)[O-] (stereo not drawn) [Nisoldipine],No significant inhibition effect,No significant inhibition effect,
"CC(=O)OCOC(=O)CN(CC(=O)OCOC(C)=O)c1ccccc1OCCOc1ccccc1N(CC(=O)OCOC(C)=O)CC(=O)OCOC(C)=O [BAPTA-AM, 1,2-bis (o-aminophenoxy) ethane-N, N, N′, N′-tetraacetic acid acetoxymethyl ester]",,,dramatically impaired
